Measured affinities in a library of Ab-14 heavy chain variants

All variants were tested on one target, the spike HR2 peptide PDVDLGDISGINAS (SARS-CoV-2).

Ab-14 is the parent antibody, in scFv form: VH, then three GGGGS repeats, then VL. The light chain is unchanged in all variants.
VH: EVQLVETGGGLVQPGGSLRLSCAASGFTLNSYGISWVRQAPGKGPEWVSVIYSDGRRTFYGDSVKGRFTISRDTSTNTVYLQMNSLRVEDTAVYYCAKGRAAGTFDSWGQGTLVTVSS
VL: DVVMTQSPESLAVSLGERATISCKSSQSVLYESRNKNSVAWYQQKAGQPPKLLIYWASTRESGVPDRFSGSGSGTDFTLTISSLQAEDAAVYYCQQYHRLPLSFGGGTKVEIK

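This is the validation round: designs drawn from the data on random variants, tested in the same kind of assay. Their group label is 14H_En_Gen (En: ensemble of fine-tuned language models; Gen: genetic algorithm). In AlphaSeq, yeast of one mating type display the scFv and yeast of the other type display the target. Pairs that bind mate more often; barcode pairs of the diploids are counted by sequencing. A regression on co-assayed BCL2-family reference pairs converts the normalised counts of each replicate to an apparent Kd. Mating was done six times.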

Variants are written as CDR1, CDR2 and CDR3 of the heavy chain (limits as in the source). Parent: GFTLNSYGIS, VIYSDGRRTFYGDSVK, GRAAGTFDS.
Scale: log10 of Kd in nM, estimated from mating counts; low values are strong binders.
A mean of the replicates is given; it leaves out those without a signal.
An entry "n.d." has no value in the source: the pair was not observed among the diploids in that replicate. This suggests poor binding but is not conclusive.
Three control strains display no target. For all heavy chain designs, 1% of the pairings with them gave a signal, with a median of 2.08 and one signal in twenty below 0.84, so weak values seen in few replicates may be background. The control count says in how many pairings with the empty strains this scFv gave a signal, with their mean in brackets.
The range of this assay differs from that of the first round, and the authors advise against merging the two.
The authors averaged sequences with at least three values out of six and counted those with two or fewer as poor binders.

CDR-H1	CDR-H2	CDR-H3	log10 Kd (nM) by replicate	mean, log10 nM	signal with controls
GFDLNEYGIS	VIYADGRRTAYADDVK	GNVAGTFDT	-0.43 -0.05 0.48 -0.63 -0.10 -0.55	-0.21	0 of 18
GFDLNEYGIS	VIYADGVRTAYADDVK	GEVAGTFDL	0.41 -0.34 -0.54 -0.11 -0.02 -0.08	-0.11	0 of 18
GFDLDEYGIS	VIYADGVRTVYADSVK	GNVAGTFDV	0.22 0.68 -1.12 -0.56 n.d. 0.15	-0.12	0 of 18
GFDLNEYGIS	VIYADGKRTAYSDSVK	GEVAGTFDL	0.18 0.17 0.23 -0.05 -0.06 0.16	0.11	0 of 18
GFDLNEYGIS	VIYADGVRTAYAESVK	GNQAGTFDV	0.02 -0.41 -0.05 -0.49 -0.54 0.24	-0.21	1 of 18 (1.81)
GFDLDEYGIS	VIYADGQRTVYADSVK	GNNAGTFDV	-0.12 -0.82 -0.11 -0.37 -0.40 -0.31	-0.35	0 of 18
GFDLNEYGIS	VIYADGMRTAYADKVK	GNVAGTFDT	-0.69 0.12 n.d. 0.35 -0.84 -0.72	-0.36	0 of 18
GFDLNEYGIS	VIYADGLRTAYVDDVK	GNVAGTFDV	0.06 -1.29 -0.21 -0.71 -0.07 0.14	-0.34	0 of 18
GFDLDEYGIS	VIYADGKRTSYADSVK	GENAGTFDV	1.40 n.d. 2.03 n.d. 2.73 n.d.	2.06	0 of 18
GFDLNEYGIS	VIYADGSRTAYADDVK	GNVAGTFDI	-0.24 -0.34 -0.32 -0.62 -0.16 -0.13	-0.30	0 of 18
GFDLNEYGIS	VIYADGMRTSYSDSVK	GNVAGTFDL	0.11 -0.61 -0.22 -0.10 0.03 0.22	-0.09	0 of 18
GFDLNEYGIS	VIYADGQRTAYADSVK	GNIAGTFDV	-0.33 0.03 -0.60 -0.57 -0.10 -0.40	-0.33	1 of 18 (2.44)
GFDLNEYGIS	VIYADGKRTAYAESVK	GEVAGTFDV	-0.64 -0.45 -0.25 0.09 -0.79 -0.47	-0.42	0 of 18
GFDLDEYGIS	VIYADGKRTAYADNVK	GNVAGTFDQ	0.15 0.77 0.12 -0.08 -0.42 -0.23	0.05	0 of 18
GFDLDEYGIS	VIYADGMRTAYSDSVK	GNEAGTFDV	-0.45 -0.69 -0.10 -0.13 -0.23 0.39	-0.20	1 of 18 (0.97)
GFDLNEYGIS	VIYADGKRKAYADSVK	GTNAGTFDV	-0.73 -0.76 -0.76 -0.85 -0.65 -0.70	-0.74	0 of 18
GFDLNEYGIS	VIYADGKRTAYADSVK	GGNAGTFDM	0.08 -0.16 -0.18 0.15 0.02 0.15	0.01	0 of 18
GFDLNEYGIS	VIYADGMRTAYADSVK	GETAGTFVQ	0.29 -0.44 -0.63 -0.65 -0.14 0.14	-0.24	0 of 18
GFDLNEYGIS	VIYADGMRTAYVDSVK	GENAGTFDQ	1.15 0.51 0.12 1.67 0.38 0.63	0.74	0 of 18
GFDLDEYGIS	VIYADGMRTFYTDSVK	GNVAGTFDL	-1.52 -1.90 -1.08 -1.14 -1.23 -1.21	-1.35	0 of 18
GFDLNEYGIS	VIYADGQRTAYSDSVK	GENAGTFDQ	-0.26 -0.18 -0.49 -0.57 -0.10 -0.10	-0.28	1 of 18 (2.77)
GFDLNEYGIS	VIYADGSRTAYSDSVK	GETAGTFDV	0.05 -0.40 -0.33 -0.63 -0.16 0.35	-0.19	0 of 18
GFDLDEYGIS	VIYADGMRTAYTDSVK	GNEAGTFDV	-0.72 -0.59 -0.63 -0.59 -0.84 -0.89	-0.71	0 of 18
GFDLNEYGIS	VIYADGVRTSYADSVK	GNVAGTFDQ	0.92 -0.15 0.14 -0.41 -0.36 -0.33	-0.03	0 of 18
GFDLDEYGIS	VIYADGVRTAYADSVK	GNVAGTFDL	0.69 -0.48 -0.26 -0.77 -1.45 -0.11	-0.40	0 of 18
GFDLNEYGIS	VIYADGRRTYYADSVK	GNTAGTFDV	0.38 -0.10 0.19 -0.34 0.17 0.21	0.09	1 of 18 (2.57)
GFDLNEYGIS	VIYADGMRTYYADDVK	GNEAGTFDV	0.07 -0.49 -0.65 -0.48 -0.52 0.15	-0.32	0 of 18
GFDLNEYGIS	VIYADGSRTAYSDSVK	GENAGTFDV	0.49 0.16 0.01 0.25 0.16 0.37	0.24	0 of 18
GFDLDEYGIS	VIYADGRRTAYADSVK	GQNAGTFDI	-0.50 -0.35 -0.13 -0.88 -0.57 -0.04	-0.41	0 of 18
GFDLNEYGIS	VIYADGMRTMYADSVK	GNVAGTFDI	0.58 1.02 0.50 0.57 0.56 1.50	0.79	0 of 18
GFDLNEYGIS	VIYADGVRTAYSDSVK	GETAGTFDT	-0.40 -0.87 -1.43 -1.48 -0.67 -1.54	-1.07	0 of 18
GFDLNEYGIS	VIYADGMRTAYIDSVK	GEVAGTFDV	1.19 0.37 0.45 -0.06 0.05 0.16	0.36	0 of 18
GFDLNEYGIS	VIYADGSRTAYADSVK	GGNAGTFDM	-0.13 0.26 -0.01 -0.28 1.02 0.36	0.20	0 of 18
GFDLNEYGIS	VIYADGMRTFYSDSVK	GEVAGTFDL	-0.15 -0.33 -0.41 -0.60 -0.45 -0.38	-0.39	0 of 18
GFDLNEYGIS	VIYADGMRTAYADSVK	GNEAGTFDM	-0.45 -0.43 1.85 -0.28 -0.29 -0.42	0.00	0 of 18
GFDLNEYGIS	VIYADGMRTAYTDSVK	GQVAGTFDL	-0.49 -0.95 -0.33 -0.86 -0.88 -0.28	-0.63	0 of 18
GFDLNEYGIS	VIYADGMRTQYADSVK	GEVAGTFDV	n.d. n.d. n.d. n.d. n.d. n.d.	n.d.	0 of 18
GFDLNEYGIS	VIYADGVRQAYADSVK	GENAGTFDI	-0.42 -0.67 0.01 0.43 0.08 0.49	-0.01	0 of 18
GFDLNEYGIS	VIYADGKRTFYADSVK	GENAGTFDV	-0.02 -0.74 -1.03 -0.92 -0.46 -0.30	-0.58	0 of 18
GFDLNEYGIS	VIYADGMRTAYSDSVK	GNTAGTFDV	-0.15 -0.37 -0.40 0.32 -0.22 0.24	-0.10	0 of 18
GFDLNEYGIS	VIYADGVRTAYADDVK	GNEAGTFDV	-0.33 -0.30 -0.55 -0.55 -0.79 -0.40	-0.49	0 of 18
GFDLNEYGIS	VIYADGMRTFYTDSVK	GENAGTFDL	0.12 0.00 -0.23 -0.14 0.19 -0.01	-0.01	0 of 18
GFDLEEYGIS	VIYADGMRTAYADSVK	GNNAGTFDV	-0.19 -0.62 -0.11 -0.85 -0.50 0.11	-0.36	0 of 18
GFDLNEYGIS	VIYADGMRTAYLDSVK	GNVAGTFDL	-0.32 -0.51 0.67 -0.87 -0.39 -0.03	-0.24	0 of 18
GFDLDEYGIS	VIYADGRRTAYSDSVK	GSNAGTFDV	-1.01 -0.81 -1.67 -1.57 -1.23 -1.02	-1.22	0 of 18
GFDLNEYGIS	VIYADGMRTAYTDSVK	GETAGTFDI	n.d. n.d. n.d. -0.45 n.d. n.d.	-0.45	0 of 18
GFDLNEYGIS	VIYADGVRTYYADSVK	GEVAGTFDV	0.17 -0.15 -0.06 -0.22 -0.26 0.76	0.04	0 of 18
GFDLNEYGIS	VIYADGKRTAYVDSVK	GGNAGTFDV	-0.27 -0.39 -0.54 -0.84 -0.55 -0.25	-0.47	0 of 18
GFDLNEYGIS	VIYADGVRTAYTDSVK	GNQAGTFDV	0.76 1.49 n.d. 0.54 0.62 0.43	0.77	0 of 18

The last 7 entries again:

CDR-H1	CDR-H2	CDR-H3	log10 Kd (nM) by replicate	mean, log10 nM	signal with controls
GFDLEEYGIS	VIYADGMRTAYADSVK	GNNAGTFDV	-0.19 -0.62 -0.11 -0.85 -0.50 0.11	-0.36	0 of 18
GFDLNEYGIS	VIYADGMRTAYLDSVK	GNVAGTFDL	-0.32 -0.51 0.67 -0.87 -0.39 -0.03	-0.24	0 of 18
GFDLDEYGIS	VIYADGRRTAYSDSVK	GSNAGTFDV	-1.01 -0.81 -1.67 -1.57 -1.23 -1.02	-1.22	0 of 18
GFDLNEYGIS	VIYADGMRTAYTDSVK	GETAGTFDI	n.d. n.d. n.d. -0.45 n.d. n.d.	-0.45	0 of 18
GFDLNEYGIS	VIYADGVRTYYADSVK	GEVAGTFDV	0.17 -0.15 -0.06 -0.22 -0.26 0.76	0.04	0 of 18
GFDLNEYGIS	VIYADGKRTAYVDSVK	GGNAGTFDV	-0.27 -0.39 -0.54 -0.84 -0.55 -0.25	-0.47	0 of 18
GFDLNEYGIS	VIYADGVRTAYTDSVK	GNQAGTFDV	0.76 1.49 n.d. 0.54 0.62 0.43	0.77	0 of 18

Reference: Li et al. 2023, doi:10.1038/s41467-023-39022-2. File: FLAb, binding data.